Reference: ChEMBL document CHEMBL1781997, “Anticonvulsant 4-aminobenzenesulfonamide derivatives with branched-alkylamide moieties: X-ray crystallography and inhibition studies of human carbonic anhydrase isoforms I, II, VII, and XIV” (J Med Chem, 2011)

Molecular target: Carbonic anhydrase 2 (Homo sapiens, UniProt P00918)

Ki: 9 nM
SMILES: NS(=O)(=O)c1ccc(NC(=O)Cc2ccccc2)cc1
